# Data from PMC8249445, “Complex effects of macrolide venturicidins on bacterial F-ATPases likely contribute to their action as antibiotic adjuvants” (Scientific Reports, 2021).
# Amino acid sequences for entries named in this document (tags omitted). A change or cut given only in a name is not applied to a line headed by its entry.
# UniProt P68699: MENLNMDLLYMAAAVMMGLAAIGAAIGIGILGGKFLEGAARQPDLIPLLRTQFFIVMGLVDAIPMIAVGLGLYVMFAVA
# Target: T1, FOF1-ATPase of WT E. coli membranes (Escherichia coli, UniProt P68699)
# T1 construct: To express haploid levels of EcFOF1 containing WT-ε or ε88-stop; expressed in transfected cells; host or cells: E. coli strain XH1 (chromosomal atpC deletion) carrying pMBε1; inverted membrane vesicles
# Format: biochemical
# Settings: alone (Fig. 2A), early inhibition, read-out: VentA at half-max. inhibition (Ki)
substance,measurement,value
venturicidin,Ki,700 nM
